Source: US20060234327A1, “Methods for identifying enzyme inhibitors and protein kinases” (priority 2003, published 2006)

Chains of the proteins cited; added tags and fusions are not shown. Lines headed by an entry give the natural chain unless they say otherwise; changes in a name come on top.
UniProt P53778: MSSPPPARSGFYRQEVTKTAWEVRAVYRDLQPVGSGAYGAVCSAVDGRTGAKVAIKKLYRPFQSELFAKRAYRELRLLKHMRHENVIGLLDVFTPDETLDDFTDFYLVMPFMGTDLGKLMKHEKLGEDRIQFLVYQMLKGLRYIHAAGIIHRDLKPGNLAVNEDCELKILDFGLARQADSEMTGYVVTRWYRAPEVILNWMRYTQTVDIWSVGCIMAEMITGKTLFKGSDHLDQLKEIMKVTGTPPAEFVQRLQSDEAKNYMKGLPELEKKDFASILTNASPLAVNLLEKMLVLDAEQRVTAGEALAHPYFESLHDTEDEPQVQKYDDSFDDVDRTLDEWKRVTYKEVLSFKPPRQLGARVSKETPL
UniProt P36897: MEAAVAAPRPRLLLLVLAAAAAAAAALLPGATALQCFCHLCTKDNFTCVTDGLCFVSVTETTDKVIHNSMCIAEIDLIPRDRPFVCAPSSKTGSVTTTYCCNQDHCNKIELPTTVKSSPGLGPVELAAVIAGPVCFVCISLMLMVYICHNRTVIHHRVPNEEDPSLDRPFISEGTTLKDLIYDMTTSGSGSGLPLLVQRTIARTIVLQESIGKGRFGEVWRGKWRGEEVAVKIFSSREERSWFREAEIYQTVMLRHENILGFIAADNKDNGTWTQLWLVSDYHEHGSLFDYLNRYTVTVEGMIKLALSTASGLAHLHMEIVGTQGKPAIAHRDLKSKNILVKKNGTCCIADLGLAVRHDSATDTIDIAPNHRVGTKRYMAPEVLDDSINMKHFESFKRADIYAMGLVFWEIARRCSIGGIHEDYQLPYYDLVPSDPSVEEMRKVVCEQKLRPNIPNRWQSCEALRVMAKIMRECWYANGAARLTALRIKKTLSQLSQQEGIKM
UniProt P02769: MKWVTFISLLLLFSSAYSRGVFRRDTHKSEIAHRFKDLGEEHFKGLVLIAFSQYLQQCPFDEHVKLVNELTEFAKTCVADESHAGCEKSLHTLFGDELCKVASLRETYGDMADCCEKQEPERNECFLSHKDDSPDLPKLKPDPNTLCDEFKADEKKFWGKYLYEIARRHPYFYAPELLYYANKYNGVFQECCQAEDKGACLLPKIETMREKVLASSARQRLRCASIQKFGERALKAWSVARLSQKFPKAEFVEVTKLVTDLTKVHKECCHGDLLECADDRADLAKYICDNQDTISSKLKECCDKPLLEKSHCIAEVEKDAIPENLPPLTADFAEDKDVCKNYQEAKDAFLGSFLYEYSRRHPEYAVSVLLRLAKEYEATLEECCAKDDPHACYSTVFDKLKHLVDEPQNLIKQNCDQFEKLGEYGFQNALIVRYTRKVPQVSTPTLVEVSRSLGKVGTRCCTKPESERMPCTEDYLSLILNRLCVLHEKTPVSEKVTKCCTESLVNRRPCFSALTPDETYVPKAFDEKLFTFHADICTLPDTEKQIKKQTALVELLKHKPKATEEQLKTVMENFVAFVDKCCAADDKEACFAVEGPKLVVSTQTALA
UniProt P36896: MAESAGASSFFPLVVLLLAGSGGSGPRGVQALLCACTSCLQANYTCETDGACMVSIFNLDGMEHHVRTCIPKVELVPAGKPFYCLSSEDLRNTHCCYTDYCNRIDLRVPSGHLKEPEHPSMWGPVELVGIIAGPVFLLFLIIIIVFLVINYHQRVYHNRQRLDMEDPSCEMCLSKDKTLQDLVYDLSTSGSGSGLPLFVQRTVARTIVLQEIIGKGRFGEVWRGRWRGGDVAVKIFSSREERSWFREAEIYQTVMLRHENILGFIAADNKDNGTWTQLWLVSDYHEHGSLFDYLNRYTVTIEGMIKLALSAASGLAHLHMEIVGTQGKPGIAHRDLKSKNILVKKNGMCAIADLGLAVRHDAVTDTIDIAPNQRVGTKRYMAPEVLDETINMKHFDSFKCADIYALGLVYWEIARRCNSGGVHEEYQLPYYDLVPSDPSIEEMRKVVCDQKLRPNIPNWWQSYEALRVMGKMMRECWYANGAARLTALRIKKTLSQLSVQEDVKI

What was measured:
[1] = molecular target: P38γ (Homo sapiens, UniProt P53778); details: unphosphorylated and phosphorylated forms; LC/MS; Fox et al. (1999); cited from earlier work
[2] = molecular target: ALK5 (kinase domain of the TGF-β type I receptor) (Homo sapiens, UniProt P36897); assay: ^14C-FSBA affinity labeling detected by autoradiography; format: binding
[3] = test system: trypsin; assay: FSBA covalent modification followed by LC/MS; details: same conditions as for the kinases
[4] = molecular target: BSA (Bos taurus, UniProt P02769); assay: FSBA covalent modification followed by LC/MS; details: same conditions as for the kinases
[5] = molecular target: T1, CDK2 (Homo sapiens, UniProt P24941); assay: FSBA covalent modification and protection by competitors, followed by LC/MS; format: binding; details: for Mass Peak (relative percentage), FSBA-modified CDK2 peak: FSBA 10 μM alone
[6] = molecular target: ALK4 (Homo sapiens, UniProt P36896); assay: as above; format: binding
[7] = molecular target: ALK5 (Homo sapiens, UniProt P36897); assay: as above; format: binding
[8] = molecular target: T1, CDK2; assay: ^14C-FSBA affinity labeling detected by autoradiography; details: unheated; one hour at room temperature
[9] = FSBA at room temperature, LC/MS

## p-Flurosulfonylbenzoyl 5′-adenosine
[1]
  Affinity labeling of P38γ by FSBA: modified by FSBA
[2]; ALK5 heated to 95° C. for 10 minutes before ^14C-FSBA
  ^14C-FSBA labeling of ALK5 by autoradiography: did not label heat-denatured ALK5
[2]; cold FSBA, autoradiography
  Cold competition with ^14C-FSBA binding to ALK5: competed with the binding of ^14C-FSBA to ALK5 kinase
[2]; unheated ALK5, one hour at room temperature
  ^14C-FSBA labeling of ALK5 by autoradiography: labeled unheated ALK5
[3]
  Covalent modification of trypsin by FSBA: did not modify
[4]
  Covalent modification of BSA by FSBA: did not modify
[5]; peak 33,404 Da (Table 2)
  Mass Peak (relative percentage), FSBA-modified CDK2 peak: 33,404 Da (100%)
[5]; peak 34,404 Da (Table 1)
  Mass Peak (relative percentage), FSBA-modified CDK2 peak: 34,404 Da (100%)
[5]; [9]
  Time to complete covalent modification of CDK2 by FSBA: about 1 hour
[6]; FSBA 10 μM alone, peak 35,459 Da
  Mass Peak (relative percentage), FSBA-modified ALK4 peak: 35,459 Da (100%)
[6]; [9]
  Time to complete covalent modification of ALK4 by FSBA: about 1 hour
[7]; FSBA 10 μM alone, peak 35,405 Da
  Mass Peak (relative percentage), FSBA-modified ALK5 peak: 35,405 Da (100%)
[7]; [9]
  Time by which the ALK5 parent peak was converted to the FSBA-modified peak: ≤ 60 min
[8]
  ^14C-FSBA labeling of CDK2 by autoradiography: labeled
